DC50 data for 1 compound are collected here from US20240238424A1, “HETEROBIFUNCTIONAL COMPOUNDS AND METHODS OF TREATING DISEASE” (Halda Therapeutics OpCo, Inc., priority 2021, published 2024).

By UniProt entry, the sequences of proteins in these tests, tags left out.
UniProt P15170, whole entry: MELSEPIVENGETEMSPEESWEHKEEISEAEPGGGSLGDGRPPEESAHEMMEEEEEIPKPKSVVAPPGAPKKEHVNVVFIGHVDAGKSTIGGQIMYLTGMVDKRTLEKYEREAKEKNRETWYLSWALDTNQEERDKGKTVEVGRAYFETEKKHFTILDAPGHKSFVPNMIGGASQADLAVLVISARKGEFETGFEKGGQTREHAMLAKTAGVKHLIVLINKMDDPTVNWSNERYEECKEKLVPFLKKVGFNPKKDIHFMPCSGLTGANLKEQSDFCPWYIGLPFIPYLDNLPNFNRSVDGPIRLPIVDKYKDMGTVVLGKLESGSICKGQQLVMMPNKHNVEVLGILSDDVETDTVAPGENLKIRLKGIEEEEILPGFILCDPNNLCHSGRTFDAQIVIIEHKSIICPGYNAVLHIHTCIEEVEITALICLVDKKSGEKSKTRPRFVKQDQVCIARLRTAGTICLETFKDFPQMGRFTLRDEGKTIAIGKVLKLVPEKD
UniProt Q96SW2, whole entry: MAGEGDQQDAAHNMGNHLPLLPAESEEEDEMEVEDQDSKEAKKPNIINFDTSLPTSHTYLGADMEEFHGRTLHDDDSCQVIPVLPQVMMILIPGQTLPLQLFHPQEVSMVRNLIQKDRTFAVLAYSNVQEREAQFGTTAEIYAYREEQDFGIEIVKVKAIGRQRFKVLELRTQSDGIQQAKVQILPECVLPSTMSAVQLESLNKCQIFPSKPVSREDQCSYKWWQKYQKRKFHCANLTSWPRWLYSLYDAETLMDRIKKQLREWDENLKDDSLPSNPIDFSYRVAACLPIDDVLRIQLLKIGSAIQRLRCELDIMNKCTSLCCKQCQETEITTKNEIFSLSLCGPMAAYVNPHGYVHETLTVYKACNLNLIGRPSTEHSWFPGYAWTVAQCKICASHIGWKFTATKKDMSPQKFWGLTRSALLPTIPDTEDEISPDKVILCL
UniProt Q16531, whole entry partner: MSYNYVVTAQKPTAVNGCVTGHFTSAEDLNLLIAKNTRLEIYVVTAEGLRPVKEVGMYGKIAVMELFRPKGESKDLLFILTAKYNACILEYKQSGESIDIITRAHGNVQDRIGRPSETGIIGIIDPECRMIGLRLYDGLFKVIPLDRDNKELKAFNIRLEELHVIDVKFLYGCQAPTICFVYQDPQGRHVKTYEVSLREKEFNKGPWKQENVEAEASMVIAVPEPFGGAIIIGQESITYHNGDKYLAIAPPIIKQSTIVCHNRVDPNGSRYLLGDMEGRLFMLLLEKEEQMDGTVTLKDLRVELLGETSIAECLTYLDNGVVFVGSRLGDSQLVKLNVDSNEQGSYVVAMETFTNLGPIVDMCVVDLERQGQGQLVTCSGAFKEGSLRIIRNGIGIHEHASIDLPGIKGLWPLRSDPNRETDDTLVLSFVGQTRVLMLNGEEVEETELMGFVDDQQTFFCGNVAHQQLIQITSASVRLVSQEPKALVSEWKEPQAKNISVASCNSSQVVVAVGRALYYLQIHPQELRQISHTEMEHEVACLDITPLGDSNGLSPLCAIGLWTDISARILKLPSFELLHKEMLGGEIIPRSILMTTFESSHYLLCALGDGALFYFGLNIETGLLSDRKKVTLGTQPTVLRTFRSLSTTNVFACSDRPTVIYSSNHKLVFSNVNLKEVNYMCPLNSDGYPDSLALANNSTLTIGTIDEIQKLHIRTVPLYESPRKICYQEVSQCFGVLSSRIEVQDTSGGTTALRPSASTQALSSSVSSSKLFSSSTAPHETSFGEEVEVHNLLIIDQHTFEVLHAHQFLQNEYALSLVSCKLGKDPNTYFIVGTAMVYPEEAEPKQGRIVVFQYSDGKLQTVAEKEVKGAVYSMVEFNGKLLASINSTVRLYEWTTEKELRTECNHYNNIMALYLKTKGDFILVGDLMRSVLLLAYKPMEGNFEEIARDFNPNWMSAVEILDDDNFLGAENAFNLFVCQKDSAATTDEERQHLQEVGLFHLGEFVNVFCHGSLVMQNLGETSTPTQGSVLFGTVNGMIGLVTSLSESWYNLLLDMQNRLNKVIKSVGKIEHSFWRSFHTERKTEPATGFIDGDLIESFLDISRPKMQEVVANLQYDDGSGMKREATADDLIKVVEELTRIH

Molecules are shown by their SMILES. Where only a bound is given, the exact number is not on record here.

This assay addresses GSPT1 (Homo sapiens, UniProt P15170+Q96SW2). Nature of the assay: GSPT1 HiBit degradation assay. The settings on record: read-out: GSPT1 DC50; Table 3A; HEK293 LgBiT cells expressing GSPT1_HiBiT, luminescence after 6 hours. An excerpt: Promega developed a HEK293 cell line that constitutively expresses LgBiT protein and GSPT1_HiBiT fusion protein. When both proteins are present, the HiBiT portion of the fusion protein combines with LgBiT protein to form a functional luciferase enzyme. Endurazine, a cell permeable small molecule, is converted by cellular esterases into furimazine, which the luciferase enzyme uses as a substrate to generate luminescence. When GSPT1 is degraded, the HiBit is also degraded. This prevents formation of fully functional luciferase, leading to a loss in luminescence. GSPT1 degradation therefore correlates with a decrease in luminescence and can be measured continuously over time. The concentration of compound at which 50% GSPT1 degradation occurs (DC50) was calculated using this system.
• HEK293 LgBiT Cell line (Promega Custom) • Endurazine Substrate (Promega Cat. #N2570) • DMEM (Gibco Cat. #11995) • Penicillin/Streptomycin (Gibco Cat. #15140-122) • Heat Inactivated Fetal Bovine Serum (Gibco Cat. #A38400-01) • Hygromycin B (Gibco Cat. #10-687-010) • 384 Well TC Treated White Microplate (Perkin Elmer Cat. #6007680)
HEK293 LgBiT cells were cultured in DMEM Media supplemented with 10% FBS, 5% Pen/Strep, 200 μg/ml hygromycin and stored in an incubator set at 37° C. and 5% CO2. […] After 6 hours the plate was read on a Perkin Elmer MultiMode Plate Reader Envision 2105 to measure luminescence signal.
A general note: With HiBiT, luminescence reflects the tagged protein that the partner subunit can reach.

What is called DC50 is the midpoint of the concentration-degradation curve. On to `CN(CCOCCOCCOCCOCCOCCOCCOCCCCCc1cc(Cl)cc(NC(=O)NCc2ccc3c(c2)CN(C2CCC(=O)NC2=O)C3=O)c1)C(=O)CC[C@H]1CC[C@H]2C3CC[C@H]4CC(=O)CC[C@]4(C)[C@H]3CC[C@]12C` (stereo partly shown), for which the DC50 is under 250 nM.
